Values of other authors as cited in US20070135514A1, “Methods for the identification of agents for the treatment of seizures, neurological diseases, endocrinopathies and hormonal diseases” (priority 2002, published 2007).

Chains of the proteins cited; added tags and fusions are not shown.
UniProt Q02563, whole entry: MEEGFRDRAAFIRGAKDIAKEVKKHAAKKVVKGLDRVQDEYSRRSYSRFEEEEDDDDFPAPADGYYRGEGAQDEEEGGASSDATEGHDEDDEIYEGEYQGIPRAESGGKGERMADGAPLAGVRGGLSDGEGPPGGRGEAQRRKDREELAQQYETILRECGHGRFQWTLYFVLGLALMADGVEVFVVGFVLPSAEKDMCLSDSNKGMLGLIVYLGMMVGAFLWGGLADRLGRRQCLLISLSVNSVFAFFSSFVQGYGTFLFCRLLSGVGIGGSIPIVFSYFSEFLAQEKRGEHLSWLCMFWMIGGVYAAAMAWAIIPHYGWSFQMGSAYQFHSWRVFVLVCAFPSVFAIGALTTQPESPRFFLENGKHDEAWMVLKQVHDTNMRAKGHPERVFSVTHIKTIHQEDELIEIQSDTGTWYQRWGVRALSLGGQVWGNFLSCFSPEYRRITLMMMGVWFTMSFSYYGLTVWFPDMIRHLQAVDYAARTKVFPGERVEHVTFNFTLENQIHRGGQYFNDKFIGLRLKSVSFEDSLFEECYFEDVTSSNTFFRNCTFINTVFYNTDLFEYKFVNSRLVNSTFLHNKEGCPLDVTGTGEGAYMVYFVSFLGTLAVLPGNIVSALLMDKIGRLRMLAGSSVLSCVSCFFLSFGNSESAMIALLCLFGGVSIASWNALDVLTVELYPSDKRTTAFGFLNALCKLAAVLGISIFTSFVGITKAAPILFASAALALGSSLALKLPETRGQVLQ

Biological target: levetiracetam binding site (LBS) (Rattus norvegicus, UniProt Q02563)
Conditions: cited from earlier work

t-butylbicyclophosphorothionate
displacement of LEV binding: do not displace LEV binding
